## Apparent affinities of Ab-14 variants for a coronavirus HR2 peptide

All variants were tested on one target, the spike HR2 peptide PDVDLGDISGINAS (SARS-CoV-2).

Ab-14 is the parent antibody, in scFv form: VH, then a 15-residue (Gly4Ser)3 linker, then VL. The light chain is unchanged in all variants.
VH: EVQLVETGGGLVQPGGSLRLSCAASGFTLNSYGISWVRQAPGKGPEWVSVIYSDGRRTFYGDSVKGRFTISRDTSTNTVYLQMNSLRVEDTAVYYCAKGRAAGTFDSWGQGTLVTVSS
VL: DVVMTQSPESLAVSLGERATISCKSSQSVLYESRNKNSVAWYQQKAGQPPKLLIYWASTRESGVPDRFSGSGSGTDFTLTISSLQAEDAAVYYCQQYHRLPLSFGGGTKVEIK

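The starting antibody came from a phage panning campaign against this peptide. This is the validation round: designs drawn from the data on random variants, tested in the same kind of assay. Group labels follow the data file (Ctrl: baseline library sampled from a position-specific scoring matrix, with some repeated check sequences; Rand: our label for a block that the file lists under HC and that is probably the random mutants of the ten best first-round binders; En: ensemble of fine-tuned language models; GP: Gaussian process model; GPLM: also part of the Gaussian process libraries; HC: hill climbing; Gen: genetic algorithm; Gibbs: Gibbs sampling; a sequence that several methods proposed may carry one label only). The assay is AlphaSeq: two haploid yeast populations carry antibody and antigen on their surface. After mating in shaken culture at 30 °C for 16 h, diploids were selected and their barcode pairs sequenced. Read counts were normalised to the haploid input and turned into Kd by a linear fit to BCL2-family pairs of known affinity, for each replicate. Each pool was mated in six replicate cultures.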

The parent's heavy chain CDRs are GFTLNSYGIS, VIYSDGRRTFYGDSVK, GRAAGTFDS; each variant's own CDRs replace them letter for letter.
Scale: log10 of Kd in nM, estimated from mating counts; low values are strong binders.
The mean shown is taken over the replicates in which the pair was detected.
"no signal" marks a missing value. The strain was present, yet no cells mated with the target were sequenced in any replicate, which points to weak or no binding.

CDR-H1	CDR-H2	CDR-H3	group	log10 Kd (nM), mean	detected
GFWLNDYGIS	VIYSDGRRTFYIDSVK	GREAGTFDS	GP_HC	0.97	6/6
GFALNSYGIS	VIYADGRRTFYGDSVK	GRAAGPFDS	Ctrl	1.95	6/6
GFDLNEYGIS	VIYADGMRTAYVDKVK	GENAGTFDV	En_Gen	-0.95	6/6
GFTLNEYGIS	VIYSDGRRTFYGDSVK	GRFAGTFDF	GP_HC	1.84	1/6
GFNIDEYGIS	VIYADGSRAVYTESVK	GHNGNRLVE	En_Gibbs	2.86	2/6
GFDLNEYGIS	VIYADGMRTAYSDNVK	GNNAGTFDV	En_Gen	-0.54	6/6
GFQLNEYGIS	VIYSDGRRTFYGDSVK	GRTAGTFDT	GP_Gen	-0.07	6/6
GFSLNEYGIS	VIYSDGRRTFYGDSVK	GRMAGTFDT	GP_Gen	0.75	6/6
GFDLNSYGIN	VIYSDGIRTAYGDSVK	GRAAGTFDS	Ctrl	1.93	6/6
GFDLNEYGIS	VIYADGKRTAYVDDVK	GEVAGTFDV	En_Gen	-0.58	6/6
GFTLNSYGIS	VIYSDGRRTFYGDSVK	GREAGQFDS	Ctrl	no signal	0/6
GFSLNSYGIS	VIYSDGRRTFYGDRVK	GEAAGTFDK	GP_Gen	1.10	6/6
GFDLAEYGIS	VIYADGSRTAYNQNVK	GLGGDSFDF	En_Gibbs	no signal	0/6
GFDVDEQGIS	VIYADGRRSQYANSVK	GANGGMFFM	En_Gibbs	no signal	0/6
KFTLNEYGIS	VIYSDGRRTFYTDSVK	GRNAGTFDS	GP_HC	0.82	4/6
GFTLNSYGIS	VIYSDGLRTFYGDSVR	GRAAGTFDS	Ctrl	0.89	2/6
DFTLNSYGIS	VIYSDGRRTFYSDSVK	GQLAGTFDS	GP_HC	1.63	6/6
GFSLNDYGIS	VIYSDGRRTHYIDSVK	GRAAGTFDS	GP_HC	2.39	3/6
GFDLNEYGIS	VIYADGRRTQYADSVK	GNQAGTFDS	En_HC	-0.39	6/6
GFDLNEYGIS	VIYADGMRTAYADSVK	GNQAGTFDV	En_Gen	0.99	6/6
GFKLDEQGIS	VIYADGRRVGYTDSVK	GTNGSDFTL	En_Gibbs	no signal	0/6
GFDLNEYGIS	VIYADGVRQAYADSVK	GNNAGTFDV	En_Gen	0.41	6/6
GFDLNEYGIS	VIYADGQRTAYIDSVK	GNVAGTFDV	En_Gen	-0.77	6/6
GFDLNEYGIS	VIYADGKRTAYADSVK	GGNAGTFDT	En_Gen	-0.46	6/6
GFDLNEYGIS	VIYADGMRTVYADSVK	GTNAGTFDL	En_Gen	-0.07	6/6
GFDLNEYGIS	VIYADGQRTAYADSVK	GQTAGTFDV	En_Gen	-0.13	6/6
GFDLNSYGIS	VIYSAGRDTFFGDSDK	GRAAGWFNS	Rand	no signal	0/6
GFDLNEYGIS	VIYADGRRTFYSDSVK	GQIAGTFDQ	En_HC	0.40	6/6
GFELNSYGIS	VIYADGRRTFYGDSVK	GHAAGTFDA	GP_Gibbs	-0.35	6/6
GFDLNEYGIS	VIYADGRRTAYDDSVK	GQVAGTFDS	En_HC	-0.39	6/6
GFDLNSYGIS	VIYSDGRRTFYGDSVK	GRVAGSFDS	GPLM_Gen	0.29	6/6
GETLNSYGIS	VIYSDGRRTFYGDSVK	GRAAGTFDE	Ctrl	0.96	1/6
GFTLNSYGIS	VMYSDGVRTFYGDAVK	GRAAGTFDS	Ctrl	2.13	1/6
GFTLNDYGIS	VIYSDGRRTFYADSVK	GRTAGTFMS	GP_HC	1.98	5/6
GYDLVEYGIS	VIYADGQRTAYADTVK	GHHGGIFFM	En_Gibbs	no signal	0/6
GFTLNKYGIS	VIYSDGRRTFYADEVK	GREAGTFDS	Ctrl	0.45	6/6
GFDLNEYGIS	VIYADGKRTAYADKVK	GNNAGTFDV	En_Gen	0.15	5/6
GFNLNSYGIS	VIYSDGRRTFYIDSVK	GREAGTFDT	GP_Gen	0.55	6/6
HFTLNQYGIS	VIYSDGRRTFYSDLVK	GRAAGFFDS	Rand	no signal	0/6
GFGLNEYGIS	VIYADGQRKYYADNVK	GVFGEDGQV	En_Gibbs	no signal	0/6
GFTLNSYGIS	VIYSDGRRTFYGDSVK	GRAAGTFLW	Ctrl	no signal	0/6
GFDLNDYGIS	VIYADGRRTAYADSVK	GEYAGTFDI	En_HC	2.34	1/6
GFELNSYGIS	VIYSDGRRTFYKDSVK	GRNAGTFDS	GP_Gen	0.84	6/6
GFDLNEYGIS	VIYADGMRTAYADKVK	GETAGTFDQ	En_Gen	-0.61	6/6
GFELNSYGIS	VIYSDGRRTFYHDSVK	GRNAGTFDS	GP_Gen	1.11	6/6
GFDLNEYGIS	VIYADGMRTVYADSVK	GEVAGTFDL	En_Gen	0.20	6/6
GFDLNEYGIS	VIYADGMRTAYVDDVK	GNVAGTFDT	En_Gen	-0.52	6/6
GFTRNSYGIS	VIYSDGRRTFYGDSVK	GDAAGTFDS	Ctrl	1.90	2/6
GKDIEEYGIS	VIYADGMRQAYADSVK	GNVVGSGSF	En_Gibbs	no signal	0/6
GGTLDKYGIS	VIYSDGRRTFYGDSVK	GRNAGTALS	Rand	no signal	0/6
GFTLNEYGIS	VIYSDGRRTFYGDSVK	GRAAGTFFF	GPLM_HC	no signal	0/6
GFDLNSYGIS	VIYSDGRRTFYGDSVK	GRAAGFFMS	GPLM_HC	no signal	0/6
GFDIQEYGIS	VIYADGMRVAYTNSVK	GTQSGSNIE	En_Gibbs	no signal	0/6
GFDLDEYGIS	VIYADGSRTAYADSVK	GEVAGTFDM	En_Gen	-0.08	6/6
GFDLNEYGIS	VIYADGKRTAYTDSVK	GENAGTFDV	En_Gen	-1.06	6/6
GFTLLLYGIS	VIYSDGRRTFYGDSVK	GRAAGTFDS	Ctrl	3.73	1/6
GFTLNSYGIS	VIYSDGRRTQYGDRVK	GRAAGTFDV	Ctrl	no signal	0/6
GFDLLEYGIS	VIYADGMRVAYAPDVK	GMEGQLVVD	En_Gibbs	no signal	0/6
GFELNEYGIS	VIYSDGRRTFYIDSVK	GNAAGTFDS	GP_Gen	0.01	6/6
GFTLNSYGIS	VIYSDGRRTFYDDSVK	GLMAGTFDS	GP_HC	no signal	0/6
GFNLDEYGIS	VIYADGYRRAYAQSVK	GYNSGTGVT	En_Gibbs	4.53	1/6
GFQLNEYGIS	VIYSDGRRTFYGDQVK	GRQAGTFDS	GP_Gen	1.10	5/6
GFSLNSYGIS	VIYSDGRRTFYVDMVK	GQTAGTFDS	GP_Gibbs	no signal	0/6
GFSLNMYGIS	VIYSDGRRTFYSDSVK	GEAAGTFDS	GPLM_Gibbs	0.79	6/6
GDGLSEYGIS	VIYADGMRTSYDDSVK	GALAGTFDE	En_Gibbs	no signal	0/6
GMNIDEYGIS	VIYADGMRTAYSNAVK	GAVFGDTIS	En_Gibbs	no signal	0/6
GFDIEEYGIS	VIYADGLRQYYKDNFK	GWNDGTIDV	En_Gibbs	no signal	0/6
GFTLNSYGIS	VIYADGRRVFYGDSVK	GRWGGTFDS	Ctrl	1.41	5/6

Repeated from above, the 11 best binders with a signal in all replicates:

CDR-H1	CDR-H2	CDR-H3	group	log10 Kd (nM), mean	detected
GFDLNEYGIS	VIYADGKRTAYTDSVK	GENAGTFDV	En_Gen	-1.06	6/6
GFDLNEYGIS	VIYADGMRTAYVDKVK	GENAGTFDV	En_Gen	-0.95	6/6
GFDLNEYGIS	VIYADGQRTAYIDSVK	GNVAGTFDV	En_Gen	-0.77	6/6
GFDLNEYGIS	VIYADGMRTAYADKVK	GETAGTFDQ	En_Gen	-0.61	6/6
GFDLNEYGIS	VIYADGKRTAYVDDVK	GEVAGTFDV	En_Gen	-0.58	6/6
GFDLNEYGIS	VIYADGMRTAYSDNVK	GNNAGTFDV	En_Gen	-0.54	6/6
GFDLNEYGIS	VIYADGMRTAYVDDVK	GNVAGTFDT	En_Gen	-0.52	6/6
GFDLNEYGIS	VIYADGKRTAYADSVK	GGNAGTFDT	En_Gen	-0.46	6/6
GFDLNEYGIS	VIYADGRRTQYADSVK	GNQAGTFDS	En_HC	-0.39	6/6
GFDLNEYGIS	VIYADGRRTAYDDSVK	GQVAGTFDS	En_HC	-0.39	6/6
GFELNSYGIS	VIYADGRRTFYGDSVK	GHAAGTFDA	GP_Gibbs	-0.35	6/6

The range of this assay differs from that of the first round, and the authors advise against merging the two.
The authors averaged sequences with at least three values out of six and counted those with two or fewer as poor binders.
Background: pairings of all heavy chain designs with three empty control strains gave a value in 1% of cases (median 2.08, 5th percentile 0.84). Values in that range, when seen in few replicates, are hard to tell from nonspecific mating.

Reference: Li et al. 2023, doi:10.1038/s41467-023-39022-2. File: FLAb, binding data.